According to patent US4139538A (dated 1979):

Experiment: in vivo
Details: mouse, po

## O=C1NC(=O)C(c2ccccc2)(c2ccccc2)N1 [Diphenylhydantoin, reference compound]
  LD50 at 168 h: 360 mg/kg
